In the assay the target is T1, TbINO1 (Trypanosoma brucei brucei, UniProt Q5QQ46).
T1 sequence (Q5QQ46 1-528): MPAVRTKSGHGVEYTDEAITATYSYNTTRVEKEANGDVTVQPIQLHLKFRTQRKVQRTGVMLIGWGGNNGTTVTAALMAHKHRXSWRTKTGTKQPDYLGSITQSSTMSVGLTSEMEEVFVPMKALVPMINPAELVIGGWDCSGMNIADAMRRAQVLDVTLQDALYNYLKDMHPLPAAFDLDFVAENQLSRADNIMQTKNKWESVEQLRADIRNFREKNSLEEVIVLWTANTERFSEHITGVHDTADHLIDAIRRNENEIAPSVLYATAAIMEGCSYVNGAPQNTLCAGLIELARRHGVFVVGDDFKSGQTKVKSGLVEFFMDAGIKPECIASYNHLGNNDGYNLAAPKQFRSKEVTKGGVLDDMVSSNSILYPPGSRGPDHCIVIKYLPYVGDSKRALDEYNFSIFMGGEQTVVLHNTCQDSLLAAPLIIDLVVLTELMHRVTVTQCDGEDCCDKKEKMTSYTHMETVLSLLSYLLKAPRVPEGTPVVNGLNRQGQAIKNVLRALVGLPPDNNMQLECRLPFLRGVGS
The experiment in a line: biochemical. To be noted: read-out: TbIno1 Tm shift [°C].

For `O=C(O)C1CCCNC1` (stereo not shown) [compound 91, 3-piperidinecarboxylic acid], the ΔTm at 1000 µM worked out at 1.69 ± 0.1 °C.

For the origin of these results see paper PMC3199943, “Screening the MayBridge Rule of 3 Fragment Library for Compounds That Interact with the Trypanosoma brucei myo-Inositol-3-Phosphate Synthase and/or Show Trypanocidal Activity” (Molecular Biology International, 2011).
